# Yeast mating assay B: variants of the scFv Ab-14

Target peptide (SARS-CoV-2 spike, HR2 region): PDVDLGDISGINAS

Parent: Ab-14, a human scFv built as VH, three GGGGS repeats, VL. Only the CDRs of the heavy chain vary.
VH: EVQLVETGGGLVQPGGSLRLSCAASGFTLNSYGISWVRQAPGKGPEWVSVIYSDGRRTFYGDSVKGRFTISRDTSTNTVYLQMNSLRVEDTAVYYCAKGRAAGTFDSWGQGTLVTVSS
VL: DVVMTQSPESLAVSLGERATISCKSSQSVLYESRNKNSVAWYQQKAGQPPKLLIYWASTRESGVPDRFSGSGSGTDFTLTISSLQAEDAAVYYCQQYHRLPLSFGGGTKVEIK

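The starting antibody came from a phage panning campaign against this peptide. Designed CDR sequences, proposed from the first random library and measured here. Group labels follow the data file (Ctrl: baseline library sampled from a position-specific scoring matrix, with some repeated check sequences; Rand: our label for a block that the file lists under HC and that is probably the random mutants of the ten best first-round binders; En: ensemble of fine-tuned language models; GP: Gaussian process model; GPLM: also part of the Gaussian process libraries; HC: hill climbing; Gen: genetic algorithm; Gibbs: Gibbs sampling; a sequence that several methods proposed may carry one label only). The scFvs were displayed on barcoded MATa yeast, the peptide on MATalpha yeast. The frequency of each diploid, read from paired DNA barcodes, reflects how well the two displayed proteins bind. Scores were corrected for input abundance and mapped to Kd with protein pairs of known affinity run in the same pool. The assay was run in six technical replicates.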

Each variant's VH is given in full.
This list holds designs with at most six substitutions.
Kd is apparent (estimated from mating counts) and averaged on the log scale over replicates with a signal. Smaller is tighter.
Where no diploid with the target was found in any replicate, the entry reads "nd": below detection, most likely a poor binder, though not proof of it.
Background: pairings of all heavy chain designs with three empty control strains gave a value in 1% of cases (median 120 nM, 5th percentile 7.0 nM). Values in that range, when seen in few replicates, are hard to tell from nonspecific mating.
Values of this round are not directly comparable with the first-round values of the same sequences.
Of ten entries with the parent sequence, four were seen in most replicates (averages 2.2 nM to 240 nM), three in one and three in none, so single entries are noisy.
The authors' rule: three or more of the six replicates give a measured affinity, fewer mean a poor binder.

| VH | group | Kd (apparent) | replicates with signal |
|---|---|---|---|
| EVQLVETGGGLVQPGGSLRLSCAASGFTLNSYGISWVRQAPGKGPEWVSVIYSDGRRTFYEDSVKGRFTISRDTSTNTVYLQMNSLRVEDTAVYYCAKGRQAGTFDSWGQGTLVTVSS | Ctrl | 23 nM | 4 of 6 |
| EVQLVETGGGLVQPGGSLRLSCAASGETLNSYGISWVRQAPGKGPEWVSVIYSDGRRTFYGDSVKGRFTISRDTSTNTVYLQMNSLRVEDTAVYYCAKIRAAKTFDSWGQGTLVTVSS | Ctrl | nd | 0 of 6 |
| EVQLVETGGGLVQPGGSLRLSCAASKFDLNSYGISWVRQAPGKGPEWVSVIYSDGRRTFYGDSVKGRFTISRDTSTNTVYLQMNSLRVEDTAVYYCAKGQTAGTFDDWGQGTLVTVSS | GP_Gibbs | 34 nM | 5 of 6 |
| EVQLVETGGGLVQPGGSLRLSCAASGFTLESYGISWVRQAPGKGPEWVSVIYSDGRRTFYGDSVKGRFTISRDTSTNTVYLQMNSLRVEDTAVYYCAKGRTAGTFDTWGQGTLVTVSS | GPLM_Gibbs | 2.9 nM | 6 of 6 |
| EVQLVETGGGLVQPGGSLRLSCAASGFTLDSYGISWVRQAPGKGPEWVSVIYSDGRRTFYGDSVKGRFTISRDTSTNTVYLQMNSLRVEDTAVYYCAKGRADGTALSWGQGTLVTVSS | Rand | nd | 0 of 6 |
| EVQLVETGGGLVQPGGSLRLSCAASGFSLNSYGISWVRQAPGKGPEWVSVIYSDGRRTFYADAVKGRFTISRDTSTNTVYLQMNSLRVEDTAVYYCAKGKAAGTFDSWGQGTLVTVSS | GPLM_Gen | 3.8 nM | 6 of 6 |
| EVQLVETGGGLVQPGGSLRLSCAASGFTLNEYGISWVRQAPGKGPEWVSVIYSDGRRTFYEDDVKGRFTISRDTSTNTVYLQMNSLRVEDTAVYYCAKGRFAHTFDSWGQGTLVTVSS | Rand | nd | 0 of 6 |
| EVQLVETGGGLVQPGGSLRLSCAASGFTLNSYGISWVRQAPGKGPEWVSVIYSDGMRTFYGDSVKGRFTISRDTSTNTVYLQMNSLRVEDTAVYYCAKGRIQGTFKSWGQGTLVTVSS | Ctrl | nd | 0 of 6 |
| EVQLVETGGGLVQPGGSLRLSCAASGFCLNSYGISWVRQAPGKGPEWVSVIYSDGRRTHYGDSVKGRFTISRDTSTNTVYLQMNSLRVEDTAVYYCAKGRAAGTKDSWGQGTLVTVSS | Ctrl | nd | 0 of 6 |
| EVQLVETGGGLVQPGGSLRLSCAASGFTLNSYGISWVRQAPGKGPEWVSVIYSDGVRTFYSDSVKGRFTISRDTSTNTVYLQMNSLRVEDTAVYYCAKGREAGTFDSWGQGTLVTVSS | GPLM_HC | 8.0 nM | 6 of 6 |
| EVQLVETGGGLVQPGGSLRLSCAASGFTLNDYGISWVRQAPGKGPEWVSVIYSDGIRTFYGDSVKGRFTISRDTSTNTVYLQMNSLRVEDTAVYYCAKGRTAGTFISWGQGTLVTVSS | GPLM_HC | 5.5 µM | 1 of 6 |
| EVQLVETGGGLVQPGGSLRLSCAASGFNLNEYGISWVRQAPGKGPEWVSVIYADGRRTFYADSVKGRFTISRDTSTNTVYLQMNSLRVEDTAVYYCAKGEAAGTFDEWGQGTLVTVSS | En_HC | 2.6 nM | 6 of 6 |
| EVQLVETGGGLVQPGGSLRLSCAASGFTLDSYGISWVRQAPGKGPEWVSVIYSDGRRTFYAGSVKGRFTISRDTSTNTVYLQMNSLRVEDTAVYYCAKGRAAGTFDFWGQGTLVTVSS | Ctrl | 310 nM | 5 of 6 |
| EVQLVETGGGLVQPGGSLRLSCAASGFSLNEYGISWVRQAPGKGPEWVSVIYSDGRRTFYMDAVKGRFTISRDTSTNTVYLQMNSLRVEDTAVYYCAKGRTAGTFDSWGQGTLVTVSS | GP_Gibbs | 3.1 nM | 6 of 6 |
| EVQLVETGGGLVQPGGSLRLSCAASGFDLNSYGISWVRQAPGKGPEWVSVIYSDGRRTFYIDSVKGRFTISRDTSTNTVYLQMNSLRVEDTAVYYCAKGRVAGTFDSWGQGTLVTVSS | GP_Gen | 1.7 nM | 6 of 6 |
| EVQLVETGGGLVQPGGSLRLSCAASGKSLNSYGISWVRQAPGKGPEWVSVIYSDGRRTFYADAVKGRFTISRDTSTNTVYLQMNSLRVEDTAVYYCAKGRTAGTFDSWGQGTLVTVSS | GP_Gibbs | 200 nM | 1 of 6 |
| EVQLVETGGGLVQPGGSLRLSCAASGFDLNSYGISWVRQAPGKGPEWVSVIYSDGRRTFYGDQVKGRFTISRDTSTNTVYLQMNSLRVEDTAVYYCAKGKQAGTFDSWGQGTLVTVSS | GP_Gen | 1.4 nM | 6 of 6 |
| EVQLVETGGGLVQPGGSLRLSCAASGFTLNSYGISWVRQAPGKGPEWVSVIYSDGRRTFYSDSVKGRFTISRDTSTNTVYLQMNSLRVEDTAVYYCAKDRNHGTFDSWGQGTLVTVSS | Ctrl | nd | 0 of 6 |
| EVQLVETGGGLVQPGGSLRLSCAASGFQLNSYGISWVRQAPGKGPEWVSVIYSDGRRTFYGDSVKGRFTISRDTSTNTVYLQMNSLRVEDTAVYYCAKGRTAGTFDSWGQGTLVTVSS | GPLM_Gen | nd | 0 of 6 |
| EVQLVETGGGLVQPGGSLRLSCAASGFQLNEYGISWVRQAPGKGPEWVSVIYSDGRRTFYGDSVKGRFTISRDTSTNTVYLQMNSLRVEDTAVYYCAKGRAAGTFDTWGQGTLVTVSS | GPLM_Gen | 980 pM | 6 of 6 |
| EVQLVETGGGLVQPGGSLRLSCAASGFWLNSYGISWVRQAPGKGPEWVSVIYSDGRRTFYGDSVKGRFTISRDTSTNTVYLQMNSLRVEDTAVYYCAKGRHKGTFDSWGQGTLVTVSS | Ctrl | 8.0 µM | 1 of 6 |
| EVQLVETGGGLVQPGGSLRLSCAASKFELNEYGISWVRQAPGKGPEWVSVIYSDGRRTFYTDSVKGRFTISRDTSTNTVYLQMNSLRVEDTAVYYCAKGRCAGTFDSWGQGTLVTVSS | GP_HC | 120 nM | 1 of 6 |
| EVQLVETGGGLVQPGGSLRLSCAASGFTLNSYGISWVRQAPGKGPEWVSVIYADGRRTFYGDSVKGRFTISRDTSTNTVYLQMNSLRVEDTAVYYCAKRQAAGTFDSWGQGTLVTVSS | Ctrl | nd | 0 of 6 |

Repeated from above, the 2 best binders with a signal in all replicates:

| VH | group | Kd (apparent) | replicates with signal |
|---|---|---|---|
| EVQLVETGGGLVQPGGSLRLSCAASGFQLNEYGISWVRQAPGKGPEWVSVIYSDGRRTFYGDSVKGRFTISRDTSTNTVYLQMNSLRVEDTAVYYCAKGRAAGTFDTWGQGTLVTVSS | GPLM_Gen | 980 pM | 6 of 6 |
| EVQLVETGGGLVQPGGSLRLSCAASGFDLNSYGISWVRQAPGKGPEWVSVIYSDGRRTFYGDQVKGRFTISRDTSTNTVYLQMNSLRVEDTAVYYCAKGKQAGTFDSWGQGTLVTVSS | GP_Gen | 1.4 nM | 6 of 6 |

Values reported by Li et al. 2023, doi:10.1038/s41467-023-39022-2 (FLAb copy).